Experimental findings from patent publication US6936585B2, “Corticotropin releasing factor 2 receptor agonists” (priority 2002, dated 2005) are described below.

One experiment has as its target T1, CRF1R (Homo sapiens, UniProt P34998).
T1 sequence (P34998 24-415): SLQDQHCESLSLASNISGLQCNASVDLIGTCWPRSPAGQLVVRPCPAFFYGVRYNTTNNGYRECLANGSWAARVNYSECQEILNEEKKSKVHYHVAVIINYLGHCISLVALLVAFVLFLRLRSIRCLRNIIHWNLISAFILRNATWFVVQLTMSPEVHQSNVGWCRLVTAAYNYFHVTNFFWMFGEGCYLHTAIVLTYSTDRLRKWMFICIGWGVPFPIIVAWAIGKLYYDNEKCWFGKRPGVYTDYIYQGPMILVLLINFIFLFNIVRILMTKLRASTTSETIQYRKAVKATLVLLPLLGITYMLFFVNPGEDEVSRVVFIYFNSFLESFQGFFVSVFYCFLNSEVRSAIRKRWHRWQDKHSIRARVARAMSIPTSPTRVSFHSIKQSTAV
In words: CRF1R agonist activation (EC50 / Emax), called comparative CRF binding. Format: cell-based. The conditions noted are these: for Emax: read-out: CRF1R Emax. Summed up:
(§1)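 Receptor-expressing cells are contacted with test peptide or the vehicle it is dissolved in. Lysates are then assayed for cAMP, or expression of a CRE-coupled reporter is quantitated. Engineered cells carrying receptor-G-protein fusions may replace full-length receptors.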

A further experiment concerns the target T2, CRF2R (Homo sapiens, UniProt Q13324).
T2 sequence (Q13324 1-411): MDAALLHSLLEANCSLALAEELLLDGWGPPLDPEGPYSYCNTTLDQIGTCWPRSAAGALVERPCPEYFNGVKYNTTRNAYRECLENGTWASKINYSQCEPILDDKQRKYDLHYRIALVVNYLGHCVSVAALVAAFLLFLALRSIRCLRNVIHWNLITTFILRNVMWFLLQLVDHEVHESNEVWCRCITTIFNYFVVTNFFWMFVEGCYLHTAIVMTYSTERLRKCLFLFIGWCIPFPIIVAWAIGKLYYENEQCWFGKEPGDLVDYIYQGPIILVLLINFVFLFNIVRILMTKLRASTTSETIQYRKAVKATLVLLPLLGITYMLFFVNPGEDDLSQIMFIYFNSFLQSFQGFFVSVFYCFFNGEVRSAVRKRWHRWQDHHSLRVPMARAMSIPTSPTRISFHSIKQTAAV
In words: CRF2R agonist activation (EC50 / Emax), called comparative CRF binding. The conditions noted are these: for Emax: read-out: CRF2R Emax. The experiment is classed as cell-based. An outline of the steps:
as §1

Usually Emax stands for the greatest response seen or fitted, relative to the assay's reference. As to `CC[C@H](C)[C@H](NC(=O)[C@@H](NC(=O)[C@H](CC(=O)O)NC(=O)[C@H](CC(C)C)NC(=O)[C@H](CC(C)C)NC(=O)[C@H](CC(C)C)NC(=O)[C@H](CCCNC(=N)N)NC(=O)[C@H](CC(N)=O)NC(=O)[C@H](CC(N)=O)NC(=O)[C@H](C)NC(=O)[C@H](C)NC(=O)[C@H](CCC(N)=O)NC(=O)[C@H](CCC(N)=O)NC(=O)[C@H](CCCCN)NC(=O)[C@H](CCC(=O)O)NC(=O)[C@H](CCCCN)NC(=O)[C@H](CCC(=O)O)NC(=O)[C@H](CCC(N)=O)NC(=O)[C@H](CCCCN)NC(=O)[C@H](CCC(=O)O)NC(=O)[C@@H](NC(=O)[C@H](CCC(=O)O)NC(=O)[C@@H](NC(=O)[C@H](CCSC)NC(=O)[C@H](CCCCN)NC(=O)[C@H](CCCNC(=N)N)NC(=O)[C@H](CC(C)C)NC(=O)[C@H](CC(C)C)NC(=O)[C@H](Cc1ccccc1)NC(=O)[C@@H](NC(=O)[C@@H]1CCCN1C(=O)[C@H](CC(C)C)NC(=O)[C@H](CC(=O)O)NC(=O)[C@@H](NC(=O)[C@H](CO)NC(=O)[C@@H](NC(=O)[C@@H]1CCCN1C(=O)[C@@H]1CCCN1C(=O)CNC(=O)[C@@H]1CCC(=O)N1)[C@@H](C)CC)[C@@H](C)CC)[C@@H](C)O)[C@@H](C)CC)[C@@H](C)CC)[C@@H](C)O)C(N)=O` [compound 44], the maximum response (Emax) on CRF1R was 64%; on CRF2R, 87%.
For the compound `CC[C@H](C)[C@H](NC(=O)[C@@H](NC(=O)[C@H](CC(=O)O)NC(=O)[C@H](CC(C)C)NC(=O)[C@H](CC(C)C)NC(=O)[C@H](CC(C)C)NC(=O)[C@H](CCCNC(=N)N)NC(=O)[C@H](CC(N)=O)NC(=O)[C@H](CC(N)=O)NC(=O)[C@H](C)NC(=O)[C@H](C)NC(=O)[C@H](CCC(N)=O)NC(=O)[C@H](CCC(N)=O)NC(=O)[C@H](CCCCN)NC(=O)[C@H](CCC(=O)O)NC(=O)[C@H](CCCCN)NC(=O)[C@H](CCC(=O)O)NC(=O)[C@H](CCC(N)=O)NC(=O)[C@H](CCCCN)NC(=O)[C@H](CCC(=O)O)NC(=O)[C@@H](NC(=O)[C@H](CCC(=O)O)NC(=O)[C@@H](NC(=O)[C@H](CCSC)NC(=O)[C@H](CCCCN)NC(=O)[C@H](CCCNC(=N)N)NC(=O)[C@H](CC(C)C)NC(=O)[C@H](CC(C)C)NC(=O)[C@@H](NC(=O)[C@@H](NC(=O)[C@@H]1CCCN1C(=O)[C@H](CC(C)C)NC(=O)[C@H](CC(=O)O)NC(=O)[C@@H](NC(=O)[C@H](CO)NC(=O)[C@@H](NC(=O)[C@@H]1CCCN1C(=O)[C@@H]1CCCN1C(=O)CNC(=O)[C@@H]1CCC(=O)N1)[C@@H](C)CC)[C@@H](C)CC)[C@@H](C)O)C(C)C)[C@@H](C)CC)[C@@H](C)CC)[C@@H](C)O)C(N)=O` [compound 46], the maximum response (Emax) at CRF1R is 17%; at CRF2R, 100%.
Taken in the same sequence, the figures for `CC[C@H](C)[C@H](NC(=O)[C@@H](NC(=O)[C@H](C)NC(=O)[C@H](CC(C)C)NC(=O)[C@H](CC(C)C)NC(=O)[C@H](CC(C)C)NC(=O)[C@H](C)NC(=O)[C@H](CC(N)=O)NC(=O)[C@H](CC(N)=O)NC(=O)[C@H](C)NC(=O)[C@H](C)NC(=O)[C@H](CCC(N)=O)NC(=O)[C@H](CCC(N)=O)NC(=O)[C@H](CCCCN)NC(=O)[C@H](CCC(=O)O)NC(=O)[C@H](CCCCN)NC(=O)[C@H](CCC(=O)O)NC(=O)[C@H](CCC(N)=O)NC(=O)[C@H](CCCCN)NC(=O)[C@H](CCC(=O)O)NC(=O)[C@@H](NC(=O)[C@H](CCC(=O)O)NC(=O)[C@@H](NC(=O)[C@H](CC(C)C)NC(=O)[C@H](CCCCN)NC(=O)[C@H](CCCNC(=N)N)NC(=O)[C@H](CC(C)C)NC(=O)[C@H](CC(C)C)NC(=O)[C@H](CCC(N)=O)NC(=O)[C@H](Cc1ccccc1)NC(=O)[C@@H]1CCCN1C(=O)[C@H](CC(C)C)NC(=O)[C@H](CC(=O)O)NC(=O)[C@@H](NC(=O)[C@H](CO)NC(=O)[C@@H](NC(=O)[C@@H]1CCCN1C(=O)[C@@H]1CCCN1C(=O)CNC(=O)[C@@H]1CCC(=O)N1)[C@@H](C)CC)[C@@H](C)CC)[C@@H](C)CC)[C@@H](C)CC)[C@@H](C)O)C(N)=O` [compound 357] were 100% and 100%.
On the same counts, the results for `CC[C@H](C)[C@H](NC(=O)[C@@H](NC(=O)[C@H](CC(=O)O)NC(=O)[C@H](CC(C)C)NC(=O)[C@H](CC(C)C)NC(=O)[C@H](CC(C)C)NC(=O)[C@H](CCCNC(=N)N)NC(=O)[C@H](CC(N)=O)NC(=O)[C@H](CC(N)=O)NC(=O)[C@H](C)NC(=O)[C@H](C)NC(=O)[C@H](CCC(N)=O)NC(=O)[C@H](CCC(N)=O)NC(=O)[C@H](CCCCN)NC(=O)[C@H](CCC(=O)O)NC(=O)[C@H](CCCCN)NC(=O)[C@H](CCC(=O)O)NC(=O)[C@H](CCC(N)=O)NC(=O)[C@H](CCCCN)NC(=O)[C@H](CCC(=O)O)NC(=O)[C@@H](NC(=O)[C@H](CCC(=O)O)NC(=O)[C@@H](NC(=O)[C@H](CCSC)NC(=O)[C@H](CCCCN)NC(=O)[C@H](CCCNC(=N)N)NC(=O)[C@H](CC(C)C)NC(=O)[C@H](CC(C)C)NC(=O)[C@H](Cc1c[nH]c2ccccc12)NC(=O)[C@H](Cc1c[nH]c2ccccc12)NC(=O)[C@@H]1CCCN1C(=O)[C@H](CC(C)C)NC(=O)[C@H](CC(=O)O)NC(=O)[C@@H](NC(=O)[C@H](CO)NC(=O)[C@@H](NC(=O)[C@@H]1CCCN1C(=O)[C@@H]1CCCN1C(=O)CNC(=O)[C@@H]1CCC(=O)N1)[C@@H](C)CC)[C@@H](C)CC)[C@@H](C)CC)[C@@H](C)CC)[C@@H](C)O)C(N)=O` [compound 216] are 98% and 90%.
On the same counts, the results for `CC[C@H](C)[C@H](NC(=O)[C@H](CCC(=O)O)NC(=O)[C@@H](NC(=O)[C@H](CCSC)NC(=O)[C@H](CCCCN)NC(=O)[C@H](CCCNC(=N)N)NC(=O)[C@H](CC(C)C)NC(=O)[C@H](CC(C)C)NC(=O)[C@H](CCC(N)=O)NC(=O)[C@H](CC(C)C)NC(=O)[C@@H]1CCCN1C(=O)[C@H](CC(C)C)NC(=O)[C@H](CC(=O)O)NC(=O)[C@@H](NC(=O)[C@H](CO)NC(=O)[C@@H](NC(=O)[C@@H]1CCCN1C(=O)[C@@H]1CCCN1C(=O)CNC(=O)[C@@H]1CCC(=O)N1)[C@@H](C)CC)[C@@H](C)CC)[C@@H](C)CC)C(=O)N[C@@H](CCC(=O)O)C(=O)N[C@@H](CCCCN)C(=O)N[C@@H](CCC(N)=O)C(=O)N[C@@H](CCC(=O)O)C(=O)N[C@@H](CCCCN)C(=O)N[C@@H](CCC(=O)O)C(=O)N[C@@H](CCCCN)C(=O)N[C@@H](CCC(N)=O)C(=O)N[C@@H](CCC(N)=O)C(=O)N[C@@H](C)C(=O)N[C@H](C(=O)N[C@H](C(=O)N[C@@H](CC(N)=O)C(=O)N[C@@H](C)C(=O)N[C@@H](CCCNC(=N)N)C(=O)N[C@@H](CC(C)C)C(=O)N[C@@H](CC(C)C)C(=O)N[C@@H](CC(=O)O)C(=O)N[C@H](C(=O)N[C@H](C(N)=O)C(C)C)[C@@H](C)O)[C@@H](C)O)[C@@H](C)O` [compound 246] are 33% and 100%.
One may read the EC50 as the concentration that produces a half-maximal response. A low value points to higher potency in that assay. `CC[C@H](C)[C@H](NC(=O)[C@H](CCCNC(=N)N)NC(=O)[C@H](C)NC(=O)[C@H](CC(N)=O)NC(=O)[C@@H](NC(=O)[C@@H](NC(=O)[C@H](C)NC(=O)[C@H](CCC(N)=O)NC(=O)[C@H](CCC(N)=O)NC(=O)[C@H](CCCCN)NC(=O)[C@H](CCC(=O)O)NC(=O)[C@H](CCCCN)NC(=O)[C@H](CCC(=O)O)NC(=O)[C@H](CCC(N)=O)NC(=O)[C@H](CCCCN)NC(=O)[C@H](CCC(=O)O)NC(=O)[C@@H](NC(=O)[C@H](CCC(=O)O)NC(=O)[C@@H](NC(=O)[C@H](CCSC)NC(=O)[C@H](CCCCN)NC(=O)[C@H](CCCNC(=N)N)NC(=O)[C@H](CC(C)C)NC(=O)[C@H](CC(C)C)NC(=O)[C@H](Cc1c[nH]cn1)NC(=O)[C@H](Cc1ccccc1)NC(=O)[C@@H]1CCCN1C(=O)[C@H](CC(C)C)NC(=O)[C@H](CC(=O)O)NC(=O)[C@@H](NC(=O)[C@H](CO)NC(=O)[C@@H](NC(=O)[C@@H]1CCCN1C(=O)[C@@H]1CCCN1C(=O)CNC(=O)[C@@H]1CCC(=O)N1)[C@@H](C)CC)[C@@H](C)CC)[C@@H](C)CC)[C@@H](C)CC)[C@@H](C)O)[C@@H](C)O)C(=O)N[C@@H](CC(C)C)C(=O)N[C@@H](C)C(=O)N[C@@H](CCCNC(=N)N)C(=O)N[C@H](C(N)=O)C(C)C` [compound 146]: the values for the concentration giving a half-maximal response (EC50) on CRF1R (CRF1R EC50) and on CRF2R were 103 nM and 8.2 nM, respectively. Besides, the Emax at CRF1R was 100%; at CRF2R, 84.5%.
